The values below are quoted from earlier work in US7211241B2, “Cascade polymer complexes, process for their production and pharmaceutical agents containing said complexes” (Schering Aktiengesellschaft, priority 1995, dated 2007).

The conditions of this data set: rats, cited from earlier work.

On to “albumin-GdDTPA: macromolecular contrast medium of the prior art (Radiology 1987; 162: 205)”, for which the “concentration in the liver tissue” value (24 hours after intravenous injection) is given as ~30 % of the dose. The dose eliminated (in 24 hours, intravenous injection) was 20 % of the dose.
